Target: Tyrosine-protein kinase BTK (Homo sapiens, UniProt Q06187)
Assay: Inhibition of BTK (unknown origin)

Amino acid sequences for entries named in this document (tags omitted). A change or cut given only in a name is not applied to a line headed by its entry.
UniProt Q06187: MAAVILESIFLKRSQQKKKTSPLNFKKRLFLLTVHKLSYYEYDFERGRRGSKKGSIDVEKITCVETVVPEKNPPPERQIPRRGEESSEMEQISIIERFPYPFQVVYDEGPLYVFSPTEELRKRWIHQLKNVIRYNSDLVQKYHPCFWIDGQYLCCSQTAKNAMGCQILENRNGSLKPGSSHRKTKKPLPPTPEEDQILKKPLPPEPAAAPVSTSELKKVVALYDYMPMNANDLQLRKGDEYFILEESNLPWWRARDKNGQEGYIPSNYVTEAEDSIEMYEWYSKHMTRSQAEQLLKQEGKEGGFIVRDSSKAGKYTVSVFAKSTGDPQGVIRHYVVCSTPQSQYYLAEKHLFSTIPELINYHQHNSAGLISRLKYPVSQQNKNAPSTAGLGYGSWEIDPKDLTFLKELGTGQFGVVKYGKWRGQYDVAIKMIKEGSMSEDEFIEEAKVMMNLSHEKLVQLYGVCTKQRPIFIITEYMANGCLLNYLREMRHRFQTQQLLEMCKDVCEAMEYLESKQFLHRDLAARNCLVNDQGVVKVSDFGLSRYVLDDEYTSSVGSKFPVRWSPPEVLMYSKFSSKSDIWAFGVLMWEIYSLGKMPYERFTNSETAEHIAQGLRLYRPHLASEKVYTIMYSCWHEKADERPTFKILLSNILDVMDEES

IC50: 0.7 nM
Structure (SMILES): C=CC(=O)Nc1cccc(Nc2nc(Nc3ccc(OCCOC)cc3)ncc2F)c1 [SPEBRUTINIB]

— ChEMBL document CHEMBL4152198, “The development of Bruton's tyrosine kinase (BTK) inhibitors from 2012 to 2017: A mini-review” (Eur J Med Chem, 2018)
